Assay results as given in PubChem BioAssay AID501 (PCMD, 2006).
The entries are a selection whose mix differs from that of the whole data set. Active and inactive are the calls of the source. Cut-off read from the data, not from the text of the source: active = inhibition above about 32% (passing the limit was not always enough); inconclusive = no clear call, values can overlap the other calls.

Protein sequences, listed by entry. Tags and fused reporters are not part of them.
UniProt P25774, whole entry, looked up: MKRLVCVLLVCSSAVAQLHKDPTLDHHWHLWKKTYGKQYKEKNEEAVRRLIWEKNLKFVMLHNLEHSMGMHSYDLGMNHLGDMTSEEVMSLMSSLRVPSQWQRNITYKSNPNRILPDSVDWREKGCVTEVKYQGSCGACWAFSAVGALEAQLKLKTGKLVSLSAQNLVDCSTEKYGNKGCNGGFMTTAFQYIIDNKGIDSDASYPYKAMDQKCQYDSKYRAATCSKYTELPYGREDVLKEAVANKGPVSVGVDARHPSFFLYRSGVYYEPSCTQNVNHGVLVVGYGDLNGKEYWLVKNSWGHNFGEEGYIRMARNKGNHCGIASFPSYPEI

Molecular target: Cathepsin S (Homo sapiens) (UniProt P25774)
Experiment: inhibitors of human cathepsin S, biochemical, compound mixtures (AID 501);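 note: 0% = enzyme without compound and 100% = blank without enzyme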
Conditions: recombinant cathepsin S, AMC dipeptide fluorescence, pooled mixtures; hits give high values;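 tested at 5 µM per compound within 10-compound mixtures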

| Compound | inhibition |
| --- | --- |
| O=C(OC1CN2CCC1CC2)C12CC3CC(CC(C3)C1)C2 (stereo not given) | inactive: -6.17% |
| O=C(COc1ccccc1)OC1CN2CCC1CC2 (stereo not given) | inactive: -0.24% |
| COP1(=S)c2c(C)nn(CCC#N)c2N=C(c2ccc(F)cc2)N1C (stereo not given) | inactive: 0.155% |
| Cc1nn(-c2ccccc2)c2c1P(=O)(N1CCOCC1)N(C)C(c1ccccc1)=N2 (stereo not given) | inactive: 14.1% |
| O=P1(Nc2ccc(Br)cn2)COc2ccccc2OC1 | inactive: 8.55% |
| Cc1ccc(OCC(=O)OC2CN3CCC2CC3)cc1 (stereo not given) | inactive: 15.7% |
| O=P1(Nc2ncccn2)COc2ccccc2OC1 | inactive: -2.72% |
| Clc1n[nH]nc1-c1nn[nH][15n]1 | inactive: 0.87% |
| O=P1(Nc2ccccn2)COc2ccccc2OC1 | inactive: -2.01% |
| Cc1cccc(OCC(=O)OC2CN3CCC2CC3)c1 (stereo not given) | inactive: 20.3% |
| CCOP1(=S)c2c(C)nn(CCC#N)c2N=C(c2ccccc2F)N1C (stereo not given) | inactive: 21.7% |
| O=P(Nc1nccs1)(c1ccccc1)c1nc2ccccc2s1 (stereo not given) | inactive: 13.6% |
| CCOP1(=S)c2c(C)nn(CCC#N)c2N=C(c2ccc(F)cc2)N1C (stereo not given) | inactive: 2.27% |
| COC(=O)c1cc2c(s1)N=C(c1ccccc1)N(C)P2(=O)N1CCOCC1 (stereo not given) | inactive: 1.71% |
| O=P1(Nc2nc3ccc(Cl)cc3s2)COc2ccccc2O1 (stereo not given) | inactive: 2.33% |
| c1nnnn1CCn1cnnn1 | inactive: 8.1% |
| O=P(Nc1nccs1)(c1ccccc1)c1ccccc1 | inactive: -3.7% |
| O=C(OC1CN2CCC1CC2)c1cccc(Cl)c1 (stereo not given) | inactive: -7.73% |
| CCc1nc2c(n1)c1c(non1O)c1c2no[n+]1[O-] | inactive: 15.3% |
| Cc1c2non([O-])c-2c(C)[n+](=O)[n+]1[O-] | inactive: 5.55% |
